pKi: −log10 of the molar value.
What follows are compounds tested against purified human Factor XIa (Homo sapiens (Human), UniProt P03951) (assay: Factor XIa chromogenic substrate (S-2366) inhibition assay). Settings: read-out: Factor XIa Ki, substrate S-2366, Table 1.
Format: biochemical

Sequences of proteins named here, by UniProt entry; tags and fusion partners are left off. Residues count along the entry.
UniProt P03951, 388-625 limits assumed: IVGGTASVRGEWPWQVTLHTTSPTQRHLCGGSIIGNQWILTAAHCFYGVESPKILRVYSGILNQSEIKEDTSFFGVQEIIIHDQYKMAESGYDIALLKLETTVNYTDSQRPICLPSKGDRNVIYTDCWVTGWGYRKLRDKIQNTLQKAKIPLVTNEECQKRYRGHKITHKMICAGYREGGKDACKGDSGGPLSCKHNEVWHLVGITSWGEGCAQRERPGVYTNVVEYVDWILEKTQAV
UniProt P03951, 19-387 partner limits assumed: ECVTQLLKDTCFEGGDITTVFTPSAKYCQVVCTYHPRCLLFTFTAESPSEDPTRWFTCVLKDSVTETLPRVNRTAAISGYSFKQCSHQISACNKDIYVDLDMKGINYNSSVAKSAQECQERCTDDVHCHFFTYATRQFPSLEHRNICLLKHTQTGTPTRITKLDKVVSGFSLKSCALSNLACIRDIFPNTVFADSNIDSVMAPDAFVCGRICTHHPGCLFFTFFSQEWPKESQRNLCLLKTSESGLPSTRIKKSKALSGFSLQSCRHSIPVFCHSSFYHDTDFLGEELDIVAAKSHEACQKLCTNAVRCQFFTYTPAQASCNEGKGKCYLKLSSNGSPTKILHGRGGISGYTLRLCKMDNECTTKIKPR

Row | pKi | SMILES
1 | 5.64 | O=C(O)c1ccc(NC(=O)[C@H]2c3cccc(N4CCNCC4)c3CCN2C(=O)/C=C/c2cc(Cl)c(F)cc2-n2cnnn2)cc1
2 | 5.61 | O=C(Nc1ccc2cn[nH]c2c1)[C@H]1c2cccc(N3CCNCC3)c2CCN1C(=O)/C=C/c1cc(Cl)c(F)cc1-n1cnnn1

Same assay, conditions: read-out: Factor XIa Ki, substrate S-2366, activity ranges, Table A

Row | SMILES | pKi
3 | COC(=O)Nc1ccc(NC(=O)C2c3cccc(N4CCNCC4)c3CCN2C(=O)/C=C/c2c(-n3cnnn3)ccc(Cl)c2F)cc1 (single isomer, unassigned) | 8.00 to 8.30
4 | O=C(O)c1ccc(NC(=O)[C@@H]2c3cccc(N4CCNCC4)c3CCN2C(=O)/C=C/c2cc(Cl)c(F)cc2-n2cnnn2)cc1 | 8.00 to 8.30

Second part, the compound after the results:

Row | pKi | SMILES
5 | > 8.30 | O=C(Nc1ccc2cn[nH]c2c1)[C@@H]1c2cccc(N3CCNCC3)c2CCN1C(=O)/C=C/c1cc(Cl)c(F)cc1-n1cnnn1
6 | 8.00 to 8.30 | COC(=O)Nc1ccc(NC(=O)C2c3cccc(N4CCN(C)CC4)c3CCN2C(=O)/C=C/c2cc(Cl)ccc2-n2cnnn2)cc1 (centres unmarked)
7 | > 8.30 | O=C(O)c1ccc(NC(=O)C2c3cccc(N4C[C@@H]5C[C@H]4CN5)c3CCN2C(=O)/C=C/c2c(-n3cnnn3)ccc(Cl)c2F)cc1 (some centres unmarked)
8 | > 8.30 | CCOC(=O)c1ccc(NC(=O)[C@@H]2c3cccc(N4CCC(N5CCCC5=O)CC4)c3CCN2C(=O)/C=C/c2c(-n3cnnn3)ccc(Cl)c2F)cc1

— patent publication US10208021B2
